Ab-95 light chain CDR variants: yeast mating affinities

Target: peptide PDVDLGDISGINAS, taken from heptad repeat 2 (HR2) of SARS-CoV-2 spike.

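In library AAYL52, one, two or three CDR residues were substituted; doubles and triples were drawn at random. The assay is AlphaSeq: two haploid yeast populations carry antibody and antigen on their surface. Pairs that bind mate more often; barcode pairs of the diploids are counted by sequencing. Read counts were normalised to the haploid input and turned into Kd by a linear fit to BCL2-family pairs of known affinity, for each replicate. Each pool was mated in three replicate cultures.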

Parent scFv Ab-95: VH joined to VL by three GGGGS repeats. Changes lie in the light chain CDRs alone.
VH: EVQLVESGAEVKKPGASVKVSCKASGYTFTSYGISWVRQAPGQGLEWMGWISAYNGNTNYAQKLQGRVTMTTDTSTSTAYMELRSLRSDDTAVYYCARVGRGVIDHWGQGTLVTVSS
VL: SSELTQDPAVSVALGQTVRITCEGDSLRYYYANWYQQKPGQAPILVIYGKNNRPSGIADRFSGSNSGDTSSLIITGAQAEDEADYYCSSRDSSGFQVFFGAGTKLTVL

Changes read parent residue, position, new residue, counted from the first residue of the VL shown.
All variants listed here change N52 of the VL, counted from its first residue.
Affinities are written as log10 Kd with Kd in nM; a lower number is a better binder.
Averages over replicates are reported, and they cover detected replicates only.
Where no diploid with the target was found in any replicate, the entry reads "no signal": below detection, most likely a poor binder, though not proof of it.
Background: pairings of library AAYL52 with three empty control strains gave a value in 28% of cases (median 3.91, 5th percentile 2.90). Values in that range, when seen in few replicates, are hard to tell from nonspecific mating. The control count says in how many pairings with the empty strains this scFv gave a signal.

changes	mean, log10 nM	seen in	control signals
S26F+N52M	3.18	3/3	2/9
N52M+P54W+G94A	3.91	1/3	1/9
G49D+N52V	2.03	3/3	2/9
N52T+S93C+F98A	5.59	1/3	1/9
E23R+N33M+N52Q	3.29	3/3	3/9
G24N+N52P+R53A	3.69	2/3	4/9
Y31G+N52C+R90V	4.79	2/3	4/9
S26C+N52W+R90H	3.35	1/3	7/9
G24F+N52V+S93I	no signal	0/3	5/9
N52V+S89C	2.25	3/3	5/9
Y31A+K50H+N52H	2.46	3/3	2/9
A32L+N52S+G94F	4.11	2/3	4/9
G24F+N52L+S88E	4.32	2/3	1/9
Y31M+N52A+S55F	2.25	3/3	2/9
N52L+S55L+Q96I	4.14	2/3	0/9
Y30I+N52M+R90Q	no signal	0/3	1/9
N52I+D91A	1.81	3/3	2/9
S26F+N52L+P54W	4.35	2/3	5/9
D25R+R28A+N52Q	2.01	3/3	4/9
S26F+N52Y+S92T	3.84	3/3	3/9
E23M+N52K	2.80	3/3	1/9
Y29L+N52T+F95G	3.91	3/3	7/9
N52I+R90D+D91K	4.44	3/3	4/9
N52D+G94N	2.52	3/3	2/9
N33G+N52R+Q96D	3.45	1/3	2/9
N52T+V97M	4.07	1/3	3/9
N33Q+N52V+F98W	4.59	1/3	3/9
L27Y+N52H+R90C	4.31	1/3	3/9
N52T+S55L+F98Q	2.37	3/3	0/9
N51W+N52Q+R90E	3.59	2/3	5/9
D25V+K50M+N52D	3.42	3/3	1/9
Y29M+N52L+D91L	5.13	1/3	2/9
Y30D+N51H+N52L	2.20	3/3	5/9
N52V+P54Q+Q96N	2.41	3/3	2/9
E23R+G49R+N52M	3.98	2/3	2/9
S26K+L27H+N52R	3.15	1/3	2/9
L27K+Y29Q+N52E	1.87	3/3	2/9
N52M+R53W+S88P	3.79	1/3	1/9
G24Y+N52W+S55T	4.22	2/3	0/9
D25C+K50L+N52Y	4.10	1/3	1/9
N52I+S88V	3.18	3/3	5/9
G24M+N51G+N52W	3.63	2/3	4/9
L27M+R28S+N52T	3.12	1/3	0/9
D25K+N33L+N52M	5.80	2/3	4/9
Y30G+N52D	0.40	3/3	5/9
N52G+S55V+V97M	5.28	1/3	6/9
N51I+N52C+Q96I	4.51	2/3	1/9
N52F+S55R	3.12	3/3	3/9
N52E+R53M	3.29	3/3	3/9
S26A+N52S+S89T	2.52	3/3	3/9
N52W+R53K+S88H	no signal	0/3	0/9
N51V+N52M+S92G	4.09	2/3	5/9
N52S+S89T+D91R	2.46	3/3	4/9
Y29R+N52F+R90G	3.57	1/3	1/9
N52Q+G94E+F95S	no signal	0/3	0/9
N52P+R90V+F95C	4.44	3/3	1/9
G24V+R28L+N52H	5.56	1/3	4/9
G24W+Y30I+N52M	3.74	3/3	4/9
N52P+S55A+Q96H	3.76	3/3	5/9
Y29D+K50D+N52K	1.31	3/3	4/9
N52L+S93T	1.75	3/3	3/9
L27A+Y31N+N52P	no signal	0/3	1/9
S26D+N52K+F98V	3.78	3/3	1/9
N52D+G94Q+F98M	2.66	3/3	2/9
N33T+N52R+V97K	4.31	2/3	2/9
Y31T+N51V+N52S	3.59	3/3	3/9
N33S+N52Y+F95L	3.67	3/3	4/9
G24A+N52A+S93A	3.92	2/3	4/9
E23R+N52E	1.14	3/3	5/9
N33V+N52G+S89A	no signal	0/3	1/9
D25Y+K50T+N52L	3.29	3/3	3/9
G49C+N52P+S55N	3.43	3/3	5/9
N52M+F98C	3.98	1/3	2/9

Picked from the list: the 6 lowest averages where every replicate gave a value.

changes	mean, log10 nM	seen in	control signals
Y30G+N52D	0.40	3/3	5/9
E23R+N52E	1.14	3/3	5/9
Y29D+K50D+N52K	1.31	3/3	4/9
N52L+S93T	1.75	3/3	3/9
N52I+D91A	1.81	3/3	2/9
L27K+Y29Q+N52E	1.87	3/3	2/9

The measurements come from Engelhart et al. 2022 (doi:10.1038/s41597-022-01779-4) through the FLAb antibody collection.